Data on one molecule can be found in BindingDB's records for doi:10.1016/j.ejmech.2008.09.027 (Chulalongkorn University, 2009).

Amino acid sequences for entries named in this document (tags omitted). A change or cut given only in a name is not applied to a line headed by its entry.
UniProt P30291: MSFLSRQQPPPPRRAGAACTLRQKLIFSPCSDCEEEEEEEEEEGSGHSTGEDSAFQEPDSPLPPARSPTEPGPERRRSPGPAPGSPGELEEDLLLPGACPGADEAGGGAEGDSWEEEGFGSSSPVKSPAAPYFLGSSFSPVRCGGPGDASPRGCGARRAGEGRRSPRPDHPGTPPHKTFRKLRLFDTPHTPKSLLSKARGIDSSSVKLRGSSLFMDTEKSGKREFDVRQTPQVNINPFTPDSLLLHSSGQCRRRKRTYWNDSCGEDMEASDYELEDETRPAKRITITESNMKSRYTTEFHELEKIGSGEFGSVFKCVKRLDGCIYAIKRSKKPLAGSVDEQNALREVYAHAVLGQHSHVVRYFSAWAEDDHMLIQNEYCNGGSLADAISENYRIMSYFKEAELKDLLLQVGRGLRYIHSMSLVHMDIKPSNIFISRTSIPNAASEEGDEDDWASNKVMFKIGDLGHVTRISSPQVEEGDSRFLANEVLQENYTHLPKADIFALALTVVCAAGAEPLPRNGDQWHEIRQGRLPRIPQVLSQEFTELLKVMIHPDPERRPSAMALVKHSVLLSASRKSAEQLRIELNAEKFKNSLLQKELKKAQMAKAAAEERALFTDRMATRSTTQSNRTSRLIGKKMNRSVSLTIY

Structures are written as SMILES. pIC50: −log10 of the molar value.

In general, pIC50 refers to the IC50 on a negative log10 scale, so that one unit is a factor of ten.

The target of the assay is Wee1-like protein kinase (Homo sapiens, UniProt P30291).

`O=C(O)CCn1c2ccc(O)cc2c2c3c(c(-c4ccccc4Cl)cc21)C(=O)NC3=O` [3-(4-(2-chlorophenyl)-9-hydroxy-1,3-dioxo-2,3-dihydropyrrolo[3,4-c]carbazol-6(1H)-yl)propanoic acid]: the pIC50 was 7.89.
